Columns and labels:
[1] = molecular target: Phosphatidylinositol 4,5-bisphosphate 3-kinase catalytic subunit beta isoform (Homo sapiens, UniProt P42338); test: Inhibition of GST-tagged human PI3K p110-beta by SPA
How it was run: (§1)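 Radiometric SPA. Enzyme and compound (in DMSO) in 20 mM Tris-HCl pH 7.4, 160 mM NaCl, 2 mM DTT, 30 mM MgCl2, 0.4 mM EDTA, 0.4 mM EGTA. Run 120 min at room temperature. Stopped with wheat germ agglutinin-coated SPA beads in PBS, then centrifuged. IC50 is the mean of at least two determinations.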

Sequences of proteins named here, by UniProt entry; tags and fusion partners are left off. A change or cut given only in a name is not applied to a line headed by its entry.
UniProt P42338: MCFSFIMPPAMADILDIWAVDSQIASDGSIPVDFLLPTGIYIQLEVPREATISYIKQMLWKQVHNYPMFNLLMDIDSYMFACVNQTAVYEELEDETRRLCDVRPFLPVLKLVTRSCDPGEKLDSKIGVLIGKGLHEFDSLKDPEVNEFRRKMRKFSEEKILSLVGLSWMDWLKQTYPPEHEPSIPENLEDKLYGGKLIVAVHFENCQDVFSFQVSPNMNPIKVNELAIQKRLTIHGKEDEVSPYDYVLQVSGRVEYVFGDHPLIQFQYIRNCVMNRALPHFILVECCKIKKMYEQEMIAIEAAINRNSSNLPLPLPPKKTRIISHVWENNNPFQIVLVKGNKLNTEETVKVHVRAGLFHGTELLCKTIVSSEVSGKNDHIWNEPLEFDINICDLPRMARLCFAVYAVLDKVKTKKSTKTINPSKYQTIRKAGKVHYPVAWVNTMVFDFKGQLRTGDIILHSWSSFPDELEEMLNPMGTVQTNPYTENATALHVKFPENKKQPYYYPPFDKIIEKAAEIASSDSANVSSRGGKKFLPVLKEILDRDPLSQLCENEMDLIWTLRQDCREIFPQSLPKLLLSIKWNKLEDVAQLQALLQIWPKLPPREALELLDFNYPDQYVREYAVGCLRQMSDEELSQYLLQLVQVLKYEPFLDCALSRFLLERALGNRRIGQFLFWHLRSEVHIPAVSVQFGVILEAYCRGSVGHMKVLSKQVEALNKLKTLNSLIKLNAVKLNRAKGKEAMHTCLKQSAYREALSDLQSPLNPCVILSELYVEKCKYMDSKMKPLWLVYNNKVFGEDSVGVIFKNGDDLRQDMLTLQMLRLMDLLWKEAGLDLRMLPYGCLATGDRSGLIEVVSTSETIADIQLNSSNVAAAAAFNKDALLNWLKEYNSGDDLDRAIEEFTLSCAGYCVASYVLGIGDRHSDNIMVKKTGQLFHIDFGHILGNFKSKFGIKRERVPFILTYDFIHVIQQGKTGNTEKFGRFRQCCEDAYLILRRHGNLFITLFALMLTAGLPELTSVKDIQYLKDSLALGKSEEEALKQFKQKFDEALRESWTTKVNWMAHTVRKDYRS
UniProt P48736: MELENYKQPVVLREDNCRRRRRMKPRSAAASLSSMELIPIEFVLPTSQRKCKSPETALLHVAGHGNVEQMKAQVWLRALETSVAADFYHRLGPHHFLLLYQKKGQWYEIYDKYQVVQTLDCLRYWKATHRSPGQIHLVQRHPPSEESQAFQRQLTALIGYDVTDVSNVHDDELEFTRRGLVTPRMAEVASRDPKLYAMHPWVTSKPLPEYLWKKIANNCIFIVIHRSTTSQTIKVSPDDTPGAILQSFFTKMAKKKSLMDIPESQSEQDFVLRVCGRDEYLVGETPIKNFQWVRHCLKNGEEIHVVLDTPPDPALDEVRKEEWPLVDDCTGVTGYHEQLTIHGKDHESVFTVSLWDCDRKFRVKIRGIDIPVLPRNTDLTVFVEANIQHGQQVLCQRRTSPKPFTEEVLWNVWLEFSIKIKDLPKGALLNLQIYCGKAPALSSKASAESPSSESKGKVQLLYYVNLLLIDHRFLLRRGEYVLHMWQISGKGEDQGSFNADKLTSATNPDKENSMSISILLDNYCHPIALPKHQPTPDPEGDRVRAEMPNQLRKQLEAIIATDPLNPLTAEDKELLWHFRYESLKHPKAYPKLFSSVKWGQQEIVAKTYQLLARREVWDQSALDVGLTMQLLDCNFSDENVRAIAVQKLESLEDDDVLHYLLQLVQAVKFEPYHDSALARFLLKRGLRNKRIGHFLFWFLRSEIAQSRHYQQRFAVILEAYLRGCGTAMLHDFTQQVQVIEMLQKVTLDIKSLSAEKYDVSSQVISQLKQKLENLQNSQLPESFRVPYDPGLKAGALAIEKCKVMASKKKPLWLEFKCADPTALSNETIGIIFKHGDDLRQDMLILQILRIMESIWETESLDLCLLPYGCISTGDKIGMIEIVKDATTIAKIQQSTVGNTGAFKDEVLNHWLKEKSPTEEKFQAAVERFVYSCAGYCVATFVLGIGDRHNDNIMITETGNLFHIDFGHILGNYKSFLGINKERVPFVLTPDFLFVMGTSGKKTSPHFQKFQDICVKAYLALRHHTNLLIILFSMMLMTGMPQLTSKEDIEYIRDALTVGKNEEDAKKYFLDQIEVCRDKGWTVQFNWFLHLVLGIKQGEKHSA

[2] = molecular target: Phosphatidylinositol 4,5-bisphosphate 3-kinase catalytic subunit gamma isoform (Homo sapiens, UniProt P48736); test: Inhibition of His-tagged PI3K p110gamma by SPA; how it was run: as §1

IC50 [1]: 340 nM
IC50 [2]: 1600 nM
SMILES: O=c1cc(N2CCOCC2)oc2c(-c3ccccc3)cccc12 [LY-294002]

From ChEMBL document CHEMBL1144502, “Synthesis and biological evaluation of imidazo[1,2-a]pyridine derivatives as novel PI3 kinase p110alpha inhibitors” (Bioorg Med Chem, 2007)
